PubChem BioAssay (NCI)
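Assay format: 96-well plates, 48-hour exposure. GI50 marks 50% less growth. TGI is the concentration that stops growth completely.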

Columns and labels:
Assay in all cases: NCI-60 cell line screen, 48 h
PC-3 prostate = tested on: PC-3 prostate
OVCAR-5 ovarian = tested on: OVCAR-5 ovarian
LOX IMVI melanoma = tested on: LOX IMVI melanoma
COLO 205 colon = tested on: COLO 205 colon
CCRF-CEM leukemia = tested on: CCRF-CEM leukemia
SK-OV-3 ovarian = tested on: SK-OV-3 ovarian
SNB-75 CNS = tested on: SNB-75 CNS
MCF7 breast = tested on: MCF7 breast
A549 NSCLC = tested on: A549 NSCLC
SF-295 CNS = tested on: SF-295 CNS
CAKI-1 renal = tested on: CAKI-1 renal
U251 CNS = tested on: U251 CNS
MDA-MB-435 = tested on: MDA-MB-435
SW-620 colon = tested on: SW-620 colon
UO-31 renal = tested on: UO-31 renal
HCT-116 colon = tested on: HCT-116 colon
HCC-2998 colon = tested on: HCC-2998 colon
SK-MEL-28 melanoma = tested on: SK-MEL-28 melanoma
HT29 colon = tested on: HT29 colon
SNB-19 CNS = tested on: SNB-19 CNS
HS 578T breast = tested on: HS 578T breast
RXF 393 renal = tested on: RXF 393 renal
OVCAR-3 ovarian = tested on: OVCAR-3 ovarian
A498 renal = tested on: A498 renal
SF-539 CNS = tested on: SF-539 CNS
SK-MEL-5 melanoma = tested on: SK-MEL-5 melanoma
T-47D breast = tested on: T-47D breast
NCI/ADR-RES ovarian = tested on: NCI/ADR-RES ovarian
OVCAR-8 ovarian = tested on: OVCAR-8 ovarian
NCI-H23 lung = tested on: NCI-H23 lung
K-562 leukemia = tested on: K-562 leukemia
MDA-N = tested on: MDA-N
HCT-15 colon = tested on: HCT-15 colon
TK-10 renal = tested on: TK-10 renal
UACC-257 melanoma = tested on: UACC-257 melanoma
HOP-92 NSCLC = tested on: HOP-92 NSCLC
NCI-H522 lung = tested on: NCI-H522 lung
HL-60(TB) leukemia = tested on: HL-60(TB) leukemia
MALME-3M melanoma = tested on: MALME-3M melanoma
786-0 renal = tested on: 786-0 renal
M14 melanoma = tested on: M14 melanoma
NCI-H226 lung = tested on: NCI-H226 lung
OVCAR-4 ovarian = tested on: OVCAR-4 ovarian
ACHN renal = tested on: ACHN renal
NCI-H460 lung = tested on: NCI-H460 lung
RPMI-8226 leukemia = tested on: RPMI-8226 leukemia
DU-145 prostate = tested on: DU-145 prostate
KM12 colon = tested on: KM12 colon
EKVX NSCLC = tested on: EKVX NSCLC
SF-268 CNS = tested on: SF-268 CNS
MDA-MB-231 breast = tested on: MDA-MB-231 breast
IGROV1 ovarian = tested on: IGROV1 ovarian
UACC-62 melanoma = tested on: UACC-62 melanoma
BT-549 breast = tested on: BT-549 breast
SK-MEL-2 melanoma = tested on: SK-MEL-2 melanoma
SN12C renal = tested on: SN12C renal
NCI-H322M lung = tested on: NCI-H322M lung

CCCCCCCCCCCCCCC[C@@H]1C[N+](C)(C)CCO[P@@](C)(=O)O1
GI50 (PC-3 prostate): 0.434 µM | TGI (PC-3 prostate): 1.69 µM | GI50 (OVCAR-5 ovarian): 2.2 µM | TGI (OVCAR-5 ovarian): 8.91 µM | GI50 (LOX IMVI melanoma): 0.51 µM | TGI (LOX IMVI melanoma): 2.96 µM | GI50 (COLO 205 colon): 0.933 µM | TGI (COLO 205 colon): 5.24 µM | GI50 (CCRF-CEM leukemia): 0.727 µM | TGI (CCRF-CEM leukemia): 17.1 µM | GI50 (SK-OV-3 ovarian): 4.69 µM | TGI (SK-OV-3 ovarian): 24.4 µM | GI50 (SNB-75 CNS): 0.41 µM | TGI (SNB-75 CNS): 1.92 µM | GI50 (MCF7 breast): 3.91 µM | TGI (MCF7 breast): 27.6 µM | GI50 (A549 NSCLC): 1.52 µM | TGI (A549 NSCLC): 4.53 µM | GI50 (SF-295 CNS): 1.19 µM | TGI (SF-295 CNS): 3.36 µM | GI50 (CAKI-1 renal): 1.23 µM | TGI (CAKI-1 renal): 6.24 µM | GI50 (U251 CNS): 0.462 µM | TGI (U251 CNS): 1.96 µM | GI50 (MDA-MB-435): 9.48 µM | TGI (MDA-MB-435): 59.3 µM | GI50 (SW-620 colon): 3.14 µM | TGI (SW-620 colon): 43.1 µM | GI50 (UO-31 renal): 7.8 µM | TGI (UO-31 renal): 24 µM | GI50 (HCT-116 colon): 2.38 µM | TGI (HCT-116 colon): 88.8 µM | GI50 (HCC-2998 colon): 1.55 µM | TGI (HCC-2998 colon): 3.8 µM | GI50 (SK-MEL-28 melanoma): 25.4 µM | TGI (SK-MEL-28 melanoma): 68.9 µM | GI50 (HT29 colon): 0.524 µM | TGI (HT29 colon): 3.97 µM | GI50 (SNB-19 CNS): 1.13 µM | TGI (SNB-19 CNS): 2.55 µM | GI50 (HS 578T breast): 0.472 µM | TGI (HS 578T breast): 2.58 µM | GI50 (RXF 393 renal): 0.722 µM | TGI (RXF 393 renal): 2.24 µM | GI50 (OVCAR-3 ovarian): 2.37 µM | TGI (OVCAR-3 ovarian): > 100 µM | GI50 (A498 renal): 10.1 µM | TGI (A498 renal): 85.4 µM | GI50 (SF-539 CNS): 1.84 µM | TGI (SF-539 CNS): 5.78 µM | GI50 (SK-MEL-5 melanoma): 5.54 µM | TGI (SK-MEL-5 melanoma): 37.9 µM | GI50 (T-47D breast): 7.51 µM | TGI (T-47D breast): > 100 µM | GI50 (NCI/ADR-RES ovarian): 16.5 µM | TGI (NCI/ADR-RES ovarian): 35.4 µM | GI50 (OVCAR-8 ovarian): 2.54 µM | TGI (OVCAR-8 ovarian): 8.92 µM | GI50 (NCI-H23 lung): 0.915 µM | TGI (NCI-H23 lung): 2.87 µM | GI50 (K-562 leukemia): 3.38 µM | TGI (K-562 leukemia): 40.3 µM | GI50 (MDA-N): 13.6 µM | TGI (MDA-N): 44.2 µM | GI50 (HCT-15 colon): 1.49 µM | TGI (HCT-15 colon): 10.5 µM | GI50 (TK-10 renal): 1.57 µM | TGI (TK-10 renal): 3.13 µM | GI50 (UACC-257 melanoma): 8.73 µM | TGI (UACC-257 melanoma): 34.2 µM | GI50 (HOP-92 NSCLC): 1.37 µM | TGI (HOP-92 NSCLC): 5.99 µM | GI50 (NCI-H522 lung): 0.55 µM | TGI (NCI-H522 lung): 2.52 µM | GI50 (HL-60(TB) leukemia): > 100 µM | TGI (HL-60(TB) leukemia): > 100 µM | GI50 (MALME-3M melanoma): 2.7 µM | TGI (MALME-3M melanoma): 8.52 µM | GI50 (786-0 renal): 0.213 µM | TGI (786-0 renal): 0.525 µM | GI50 (M14 melanoma): 2.8 µM | TGI (M14 melanoma): 14.2 µM | GI50 (NCI-H226 lung): 1.62 µM | TGI (NCI-H226 lung): 7.52 µM | GI50 (OVCAR-4 ovarian): 2.82 µM | TGI (OVCAR-4 ovarian): 13.3 µM | GI50 (ACHN renal): 2.58 µM | TGI (ACHN renal): 14.3 µM | GI50 (NCI-H460 lung): 0.376 µM | TGI (NCI-H460 lung): 1.6 µM | GI50 (RPMI-8226 leukemia): 0.537 µM | TGI (RPMI-8226 leukemia): 2.38 µM | GI50 (DU-145 prostate): 5.27 µM | TGI (DU-145 prostate): 48 µM | GI50 (KM12 colon): 0.207 µM | TGI (KM12 colon): 0.515 µM | GI50 (EKVX NSCLC): 9.42 µM | TGI (EKVX NSCLC): 34.9 µM | GI50 (SF-268 CNS): 1.18 µM | TGI (SF-268 CNS): 2.68 µM | GI50 (MDA-MB-231 breast): 1.18 µM | TGI (MDA-MB-231 breast): 4.51 µM | GI50 (IGROV1 ovarian): 0.358 µM | TGI (IGROV1 ovarian): 1.93 µM | GI50 (UACC-62 melanoma): 3.17 µM | TGI (UACC-62 melanoma): 17.1 µM | GI50 (BT-549 breast): 1.25 µM | TGI (BT-549 breast): 3.72 µM | GI50 (SK-MEL-2 melanoma): 19.1 µM | TGI (SK-MEL-2 melanoma): 54.5 µM | GI50 (SN12C renal): 1.81 µM | TGI (SN12C renal): 7.11 µM | GI50 (NCI-H322M lung): 11.6 µM | TGI (NCI-H322M lung): 31.3 µM
